Laboratory results: patent EP1344834A2, “Methods for the toxicity prediction of a compound” (F. HOFFMANN-LA ROCHE AG, priority 2002, dated 2003)

Assays:
Conditions in all cases: rat liver, control = 1.0
PC3 (BTG2) [1] = assay: Affymetrix GeneChip RG-U34A expression analysis of liver after in vivo dosing; further: unit not given here
AH-R [2] = assay: as above
PC3 (BTG2) [3] = assay: Quantitative RT-PCR (SybrGreen) of liver mRNA after in vivo dosing
AH-R [4] = assay: as above
CYP2B2 [5] = assay: Affymetrix GeneChip RG-U34A expression analysis of liver after in vivo dosing; further: unit not given here
CYP2B2 [6] = assay: Quantitative RT-PCR (SybrGreen) of liver mRNA after in vivo dosing; further: test concentration or dose not given here
Wherever AH-R Affymetrix is given: unit not given here.
Wherever AH-R RT-PCR is given: test concentration or dose not given here.

“(4-Amino-N-(6-bromo-1 H -indol-4-yl)-benzenesulfonamide [Ro65-7199]” was tested, and the “PC3 (BTG2) Affymetrix” value (PC3 (BTG2) [1]; 6 H) was 0.1, the “PC3 (BTG2) Affymetrix” value (PC3 (BTG2) [1]; 7 D) was 0.7 and the “PC3 (BTG2) Affymetrix” value (PC3 (BTG2) [1]; 24 H) was 5.7. The “AH-R Affymetrix” value (AH-R [2]; 6 H) was 8.0, the “AH-R Affymetrix” value (AH-R [2]; 7 D) was 2.8 and the “AH-R Affymetrix” value (AH-R [2]; 24 H) was 4.5. For the same substance, the “PC3 (BTG2) RT-PCR” value (PC3 (BTG2) [3]; 6 H) was 0.6, the “PC3 (BTG2) RT-PCR” value (PC3 (BTG2) [3]; 7 D) was 0.0 and the “PC3 (BTG2) RT-PCR” value (PC3 (BTG2) [3]; 24 H) was 2.7. For the same substance, the “AH-R RT-PCR” value (AH-R [4]; 6 H) was 2.7, the “AH-R RT-PCR” value (AH-R [4]; 7 D) was 2.0 and the “AH-R RT-PCR” value (AH-R [4]; 24 H) was 1.1. The “CYP2B2 Affymetrix” value (CYP2B2 [5]; 6 H) was 3.2, the “CYP2B2 Affymetrix” value (CYP2B2 [5]; 7 D) was 4.1 and the “CYP2B2 Affymetrix” value (CYP2B2 [5]; 24 H) was 3.4. The “CYP2B2 RT-PCR” value (CYP2B2 [6]; 6 H) was 31.2, the “CYP2B2 RT-PCR” value (CYP2B2 [6]; 7 D) was 3.9 and the “CYP2B2 RT-PCR” value (CYP2B2 [6]; 24 H) was 15.9.
